Assay [1] concerns the target T1, HEK-293-αVβ3 cells (Homo sapiens, UniProt P05106+P06756). Description: AP5 Binding Assay. It counts as cell-based.
Assay [2] addresses T1, HEK-293-αVβ3 cells. Description: αVβ3 Cell Adhesion to Fibrinogen Assay. The note with it: dose reducing by 50% the adhesion of HEK-293-αVβ3 cells to fibrinogen; separate determinations listed. An excerpt:
HEK-293 Cells Expressing αVβ3. HEK-293 cells were transfected using lipofectamine 2000 (Invitrogen #11668030) with the cDNA for αV using the pEF1/V5-His A vector and the cDNA for β3 using the vector pcDNA3.1. Cells expressing αVβ3 were identified by their reaction with murine monoclonal antibodies (mAbs) LM609 and 7E3, and stable cell lines were established by repetitive sorting using LM609. […] HEK-293-αVβ3 cells for assays are counted in an automated cell counter (ADVIA 120) and adjusted to values appropriate for each assay.
αVβ3 Cell Adhesion to Fibrinogen Assay. Polystyrene 96-well microtiter plates (Costar, 3590) are precoated with 3.5 μg/mL of purified fibrinogen (Enzyme Research Laboratories) in 0.15 M NaCl, 0.01 M Tris/HCL, pH 7.4 for 1 hour at 37° C. […] After 30-32 minutes the wells are washed with HBMT containing Ca2+ and Mg2+ three times and then the adherent cells are lysed and the acid phosphatase activity that is released is measured by: 1. adding phosphatase substrate (Sigma EC 224-246-5) at 2 mg/mL in 0.1 M Na citrate, pH 5.6, 0.1% triton X-100 for 1 hour at room temperature; 2. stopping the reaction by adding 50 μL of 2 M NaOH; and 3. analyzing the samples in a spectrophotometer at 405 nm. […] IC50's were not determined for all compounds in the table; for some of these test compounds the inhibition at specific doses are reported. […]

Sequences of proteins named here, by UniProt entry; tags and fusion partners are left off.
UniProt P05106, whole entry: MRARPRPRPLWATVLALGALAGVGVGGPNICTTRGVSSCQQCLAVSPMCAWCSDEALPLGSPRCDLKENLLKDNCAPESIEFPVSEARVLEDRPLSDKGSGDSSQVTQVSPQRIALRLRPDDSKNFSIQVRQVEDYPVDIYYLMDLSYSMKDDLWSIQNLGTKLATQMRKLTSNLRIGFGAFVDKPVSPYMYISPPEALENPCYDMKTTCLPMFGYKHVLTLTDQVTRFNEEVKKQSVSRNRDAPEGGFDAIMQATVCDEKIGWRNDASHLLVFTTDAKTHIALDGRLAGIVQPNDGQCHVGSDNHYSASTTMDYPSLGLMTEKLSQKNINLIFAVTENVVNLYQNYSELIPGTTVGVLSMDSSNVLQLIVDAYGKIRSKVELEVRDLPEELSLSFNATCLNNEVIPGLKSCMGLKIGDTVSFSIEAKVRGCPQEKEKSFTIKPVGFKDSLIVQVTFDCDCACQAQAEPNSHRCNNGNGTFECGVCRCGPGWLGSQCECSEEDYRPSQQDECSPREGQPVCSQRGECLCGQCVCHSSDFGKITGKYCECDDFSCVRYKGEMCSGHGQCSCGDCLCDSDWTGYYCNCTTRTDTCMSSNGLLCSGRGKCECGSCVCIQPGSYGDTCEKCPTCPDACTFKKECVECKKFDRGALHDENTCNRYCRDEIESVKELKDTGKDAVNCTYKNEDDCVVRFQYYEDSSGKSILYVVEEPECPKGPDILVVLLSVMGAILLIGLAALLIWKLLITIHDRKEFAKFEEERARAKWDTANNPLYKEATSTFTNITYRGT
UniProt P06756, whole entry: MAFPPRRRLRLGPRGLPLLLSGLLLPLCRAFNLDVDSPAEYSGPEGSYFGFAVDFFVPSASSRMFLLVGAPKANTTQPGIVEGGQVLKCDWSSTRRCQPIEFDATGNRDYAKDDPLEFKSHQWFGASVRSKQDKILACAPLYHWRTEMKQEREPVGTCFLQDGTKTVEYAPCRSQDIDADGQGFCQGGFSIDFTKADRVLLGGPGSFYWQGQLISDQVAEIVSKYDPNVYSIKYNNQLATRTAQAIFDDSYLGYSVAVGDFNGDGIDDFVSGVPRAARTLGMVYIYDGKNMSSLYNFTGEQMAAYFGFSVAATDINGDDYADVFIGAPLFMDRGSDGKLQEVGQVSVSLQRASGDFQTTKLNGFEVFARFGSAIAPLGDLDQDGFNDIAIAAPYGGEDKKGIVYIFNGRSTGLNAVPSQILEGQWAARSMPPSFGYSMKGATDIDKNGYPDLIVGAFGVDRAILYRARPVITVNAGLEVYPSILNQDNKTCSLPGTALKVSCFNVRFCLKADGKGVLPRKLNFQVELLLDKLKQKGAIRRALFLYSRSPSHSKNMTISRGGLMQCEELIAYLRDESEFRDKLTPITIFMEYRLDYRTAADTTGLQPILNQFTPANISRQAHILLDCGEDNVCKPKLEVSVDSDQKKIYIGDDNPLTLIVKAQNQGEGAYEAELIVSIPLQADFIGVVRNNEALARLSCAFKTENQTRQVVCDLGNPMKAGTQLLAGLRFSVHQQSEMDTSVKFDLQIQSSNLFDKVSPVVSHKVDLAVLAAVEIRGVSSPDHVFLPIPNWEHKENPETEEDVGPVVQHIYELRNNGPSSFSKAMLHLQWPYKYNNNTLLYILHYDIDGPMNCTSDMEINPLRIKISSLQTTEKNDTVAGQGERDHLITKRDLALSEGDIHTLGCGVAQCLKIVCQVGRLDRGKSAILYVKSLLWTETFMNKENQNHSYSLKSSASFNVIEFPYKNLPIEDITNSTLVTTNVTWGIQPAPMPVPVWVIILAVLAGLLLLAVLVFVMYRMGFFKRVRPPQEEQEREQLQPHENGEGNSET

The term pIC50 denotes the negative decadic logarithm of the IC50, by convention in mol/L. Low readings indicate a large IC50, high ones a small IC50.

pIC50: −log10 of the molar value. “And” between values parts separate entries of the source, which are not always exact repeats. Equal entries are not always repeated.

On to `O=C(CCCCc1ccc2c(n1)NCCC2)NCC[C@H](NC(=O)c1nc2ccccc2s1)C(=O)O`, for which the “AP5 expression induced at the highest concentration” value at HEK-293-αVβ3 cells [1] (@10 μM, relative to AP5 expression induced by cilengitide) is listed as 7%. Besides, at HEK-293-αVβ3 cells [1] (concentration inducing 50% of the AP5 expression induced by 1 μM cilengitide), the EC50 entry is “could not be calculated”. For the same molecule, on HEK-293-αVβ3 cells [2], the pIC50 is 7.63 and 7.67.

For the origin of these results see patent publication US11192889B2, “Tetrahydronaphthyridinepentanamide integrin antagonists” (The Rockefeller University, priority 2016, dated 2021).
